Chains of the proteins cited; added tags and fusions are not shown. Residues count along the entry.
UniProt P05106, 27-788: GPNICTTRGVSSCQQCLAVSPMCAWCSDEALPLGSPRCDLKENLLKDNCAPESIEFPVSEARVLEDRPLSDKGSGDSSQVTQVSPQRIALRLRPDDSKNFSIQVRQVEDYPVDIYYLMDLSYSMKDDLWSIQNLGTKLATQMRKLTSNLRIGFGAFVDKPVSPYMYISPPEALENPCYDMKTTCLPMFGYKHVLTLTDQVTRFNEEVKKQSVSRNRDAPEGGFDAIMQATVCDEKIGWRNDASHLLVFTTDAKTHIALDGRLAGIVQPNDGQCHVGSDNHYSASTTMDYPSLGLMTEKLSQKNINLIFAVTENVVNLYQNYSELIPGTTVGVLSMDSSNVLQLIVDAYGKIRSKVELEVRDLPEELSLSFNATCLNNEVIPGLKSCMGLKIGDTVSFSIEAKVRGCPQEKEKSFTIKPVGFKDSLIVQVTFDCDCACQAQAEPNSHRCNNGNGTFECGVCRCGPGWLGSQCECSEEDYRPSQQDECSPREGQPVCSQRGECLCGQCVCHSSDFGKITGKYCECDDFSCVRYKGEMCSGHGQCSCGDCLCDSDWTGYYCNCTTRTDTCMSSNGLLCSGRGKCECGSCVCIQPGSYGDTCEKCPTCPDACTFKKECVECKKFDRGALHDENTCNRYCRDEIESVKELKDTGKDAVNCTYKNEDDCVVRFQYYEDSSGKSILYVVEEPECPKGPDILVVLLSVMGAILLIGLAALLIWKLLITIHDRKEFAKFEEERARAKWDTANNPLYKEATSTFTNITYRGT
UniProt P06756, 891-1048 partner limits assumed: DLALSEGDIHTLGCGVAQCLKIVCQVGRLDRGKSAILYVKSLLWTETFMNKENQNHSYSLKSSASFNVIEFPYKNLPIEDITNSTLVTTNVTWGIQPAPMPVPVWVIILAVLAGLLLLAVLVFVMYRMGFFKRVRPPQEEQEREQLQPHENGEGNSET
UniProt P06756, 31-889 limits assumed: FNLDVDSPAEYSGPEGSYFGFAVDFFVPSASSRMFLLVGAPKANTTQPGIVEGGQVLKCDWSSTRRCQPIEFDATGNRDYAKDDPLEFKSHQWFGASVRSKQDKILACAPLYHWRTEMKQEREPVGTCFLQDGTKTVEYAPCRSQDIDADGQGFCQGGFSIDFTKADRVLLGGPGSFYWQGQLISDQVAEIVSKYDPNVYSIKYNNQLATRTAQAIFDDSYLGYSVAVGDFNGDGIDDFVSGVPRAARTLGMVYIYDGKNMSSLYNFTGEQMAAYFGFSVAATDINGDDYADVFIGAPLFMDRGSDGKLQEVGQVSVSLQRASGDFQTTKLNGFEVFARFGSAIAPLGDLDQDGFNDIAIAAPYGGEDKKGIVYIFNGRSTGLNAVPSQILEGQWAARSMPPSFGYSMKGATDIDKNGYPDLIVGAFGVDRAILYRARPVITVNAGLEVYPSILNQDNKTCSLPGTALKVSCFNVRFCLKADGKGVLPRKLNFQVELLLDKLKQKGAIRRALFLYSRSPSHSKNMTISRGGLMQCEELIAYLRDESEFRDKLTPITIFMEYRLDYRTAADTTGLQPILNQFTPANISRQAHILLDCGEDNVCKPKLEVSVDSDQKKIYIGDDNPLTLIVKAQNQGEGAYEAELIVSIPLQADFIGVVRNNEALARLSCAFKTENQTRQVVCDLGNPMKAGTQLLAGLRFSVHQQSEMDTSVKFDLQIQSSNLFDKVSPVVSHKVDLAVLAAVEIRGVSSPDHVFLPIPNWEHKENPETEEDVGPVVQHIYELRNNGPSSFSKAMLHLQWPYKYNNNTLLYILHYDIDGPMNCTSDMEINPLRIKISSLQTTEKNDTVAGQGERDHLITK
UniProt P08514, 32-887 limits assumed: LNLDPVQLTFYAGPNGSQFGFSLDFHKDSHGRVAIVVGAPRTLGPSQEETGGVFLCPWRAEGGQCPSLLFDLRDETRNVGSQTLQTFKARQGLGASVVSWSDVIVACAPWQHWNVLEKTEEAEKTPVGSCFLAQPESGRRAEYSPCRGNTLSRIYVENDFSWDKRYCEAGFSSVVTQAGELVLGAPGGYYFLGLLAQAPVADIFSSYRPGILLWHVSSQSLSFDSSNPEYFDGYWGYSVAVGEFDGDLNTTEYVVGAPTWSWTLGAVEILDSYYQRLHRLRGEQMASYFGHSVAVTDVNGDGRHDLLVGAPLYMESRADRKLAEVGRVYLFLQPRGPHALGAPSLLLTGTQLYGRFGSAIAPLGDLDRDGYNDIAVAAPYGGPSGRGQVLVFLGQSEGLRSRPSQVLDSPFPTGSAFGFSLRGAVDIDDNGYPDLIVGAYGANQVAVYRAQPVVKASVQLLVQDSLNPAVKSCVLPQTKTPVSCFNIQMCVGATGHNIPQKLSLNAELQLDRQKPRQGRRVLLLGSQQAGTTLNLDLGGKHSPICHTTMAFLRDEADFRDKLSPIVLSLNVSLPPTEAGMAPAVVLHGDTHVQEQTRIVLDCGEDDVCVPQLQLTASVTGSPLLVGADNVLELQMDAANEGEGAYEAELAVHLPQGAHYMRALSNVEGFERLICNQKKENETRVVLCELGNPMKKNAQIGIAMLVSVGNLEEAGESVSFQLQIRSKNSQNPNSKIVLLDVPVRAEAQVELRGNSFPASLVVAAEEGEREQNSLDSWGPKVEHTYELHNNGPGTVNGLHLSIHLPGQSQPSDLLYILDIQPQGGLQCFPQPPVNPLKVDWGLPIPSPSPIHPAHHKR
UniProt P08514, 891-1039 partner limits assumed: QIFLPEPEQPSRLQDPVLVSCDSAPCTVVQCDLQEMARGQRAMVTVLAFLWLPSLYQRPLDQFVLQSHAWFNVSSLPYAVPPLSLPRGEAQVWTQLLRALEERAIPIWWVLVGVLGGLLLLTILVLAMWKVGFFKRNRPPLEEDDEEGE

According to patent US5648330A, “Method and composition for treating vascular graft occlusion” (La Jolla Cancer Research Foundation, priority 1995, dated 1997):

What was measured:
[1] = molecular target: T1, Vitronectin receptor (Vn-R) (Homo sapiens, UniProt P05106+P06756); experiment: Liposome attachment assay for vitronectin receptor; conditions: purified receptor, read-out: VnR Binding (IC50)
T1 construct: from (100 mM) octyl glucoside (OG) extracted human placenta; from tissue; host or cells: human placenta
Procedure: Receptors were purified according to the procedures of Pytela et al. (Methods Enzymol. 144: 475 (1987)), incorporated herein by reference. […] After extraction, the suspension was filtered over a Sepharose 6B column and then applied to a GRGDSPK column. Except where stated, all procedures were carried out at 4° C. The peptide column was washed with three volumes of Tris-buffered saline (TBS) containing 1 mM Ca^2+ and 25 mM OG and then with TBS containing 1 mM Ca^2+ and 25 mM octyl thioglucoside (OTG) at room temperature. […] Finally, Ca^2+ and Mg^+2 were added to eluted fractions to achieve final concentrations of 1 mM for both ions.
(§1) This assay was performed with minor modifications, according to the method of Pytela et al., Methods Enzymol. 144: 475 (1987), incorporated herein by reference. Briefly, 1:4 mixture of labelled and unlabelled phosphatidylcholine (PC) liposomes was dissolved under nitrogen and diluted with an equal volume of purified receptor (purified as described in Example II) to achieve a fixed predetermined receptor-liposome concentration ratio. This mixture was then dialyzed overnight at 4° C. in phosphate buffered saline (PBS) containing 1 mM Ca^2+. An aliquot of the dialyzed sample was counted to assess radioactive content; the receptor-liposome mixture was then diluted to obtain a set radioactivity per unit volume.
Microtiter plates were coated with 10 μg of vitronectin. Non-specific sites were blocked for 2 hours at 37° C. in PBS containing 5 mg/ml BSA and 1 mM each of CaCl2 and MgCl2. The plates were then rinsed twice with PBS containing 1 mM Ca^+2 and Mg^+2, and 100 μl of the liposome-receptor mixture was added to each well. If necessary, peptides were added before this step in a 1-10% dilution. The plates were then incubated at 4° C. for 24 hours. The following day, the liquid in each well was aspirated and the plates were washed twice with PBS containing 1 mM Ca^+2 and Mg^+2. Finally, 100 μl of 2% SDS was added, the plates were shaken for 10-15 minutes, and the supernatants were collected, vortexed, and subjected to liquid scintillation counting. This procedure typically yielded ca. 1000 total and 100 non-specific counts per well.
In parallel studies with the platelet aggregation experiments (described in Example V), the apparent affinities of peptides for GP IIb/IIIa, fibronectin and vitronectin receptors were determined. Receptor-binding assays (as described in Examples III and IV) with purified receptors, were used to assess the abilities of the peptides to displace the binding of receptors to their receptor-specific ligands.
IC50 s for FnR were determined by ELISA (Example III). Those for VnR and GP IIb/IIIa were determined by liposome attachment assay (Example IV). The GRGDSP prototype peptide is used as a reference for comparison between assays for an individual peptide.

GP IIb/IIIa = GP IIb/IIIa (Homo sapiens, UniProt P05106+P08514); experiment: Liposome attachment assay for GP IIb/IIIa; conditions: read-out: IIb/IIIa Binding (IC50)
Procedure: as §1
Microtiter plates were coated with 10 μg of vitronectin. Non-specific sites were blocked for 2 hours at 37° C. in PBS containing 5 mg/ml BSA and 1 mM each of CaCl2 and MgCl2. The plates were then rinsed twice with PBS containing 1 mM Ca^+2 and Mg^+2, and 100 μl of the liposome-receptor mixture was added to each well. […]
In parallel studies with the platelet aggregation experiments (described in Example V), the apparent affinities of peptides for GP IIb/IIIa, fibronectin and vitronectin receptors were determined. […]
IC50 s for FnR were determined by ELISA (Example III). Those for VnR and GP IIb/IIIa were determined by liposome attachment assay (Example IV). […]

Substance GPenGRGDTPCA has an IC50 [1] of 0.47 µM.
With GPenLRGDSPCA the IC50 [1] was 7.9 µM.
For RPenGHRGDWRCR, the IC50 [1] was 0.71 µM.
Work on RPenGRGDTPCA yielded an IC50 [1] of 5.6 µM.
With RPenGRGDTPCR the IC50 [1] was 2.56 µM.
RPenGRGDWPCR gave an IC50 (GP IIb/IIIa) of 0.43 µM.
